# Among all 280,000 compounds or so, about 1,100 (0.39%) were called active. All entries are inconclusive by the source's own rule. Clear calls are listed elsewhere. Calls come from the whole dose curve; as a rule, active = well fitted inhibition curve with a large enough effect; inconclusive = small, poorly fitted or top-dose-only effect, or effect the other way; inactive = flat fitted curve, though single readings scatter.
# Protein sequences, listed by entry. Tags and fused reporters are not part of them.
# UniProt P10636, whole entry, looked up: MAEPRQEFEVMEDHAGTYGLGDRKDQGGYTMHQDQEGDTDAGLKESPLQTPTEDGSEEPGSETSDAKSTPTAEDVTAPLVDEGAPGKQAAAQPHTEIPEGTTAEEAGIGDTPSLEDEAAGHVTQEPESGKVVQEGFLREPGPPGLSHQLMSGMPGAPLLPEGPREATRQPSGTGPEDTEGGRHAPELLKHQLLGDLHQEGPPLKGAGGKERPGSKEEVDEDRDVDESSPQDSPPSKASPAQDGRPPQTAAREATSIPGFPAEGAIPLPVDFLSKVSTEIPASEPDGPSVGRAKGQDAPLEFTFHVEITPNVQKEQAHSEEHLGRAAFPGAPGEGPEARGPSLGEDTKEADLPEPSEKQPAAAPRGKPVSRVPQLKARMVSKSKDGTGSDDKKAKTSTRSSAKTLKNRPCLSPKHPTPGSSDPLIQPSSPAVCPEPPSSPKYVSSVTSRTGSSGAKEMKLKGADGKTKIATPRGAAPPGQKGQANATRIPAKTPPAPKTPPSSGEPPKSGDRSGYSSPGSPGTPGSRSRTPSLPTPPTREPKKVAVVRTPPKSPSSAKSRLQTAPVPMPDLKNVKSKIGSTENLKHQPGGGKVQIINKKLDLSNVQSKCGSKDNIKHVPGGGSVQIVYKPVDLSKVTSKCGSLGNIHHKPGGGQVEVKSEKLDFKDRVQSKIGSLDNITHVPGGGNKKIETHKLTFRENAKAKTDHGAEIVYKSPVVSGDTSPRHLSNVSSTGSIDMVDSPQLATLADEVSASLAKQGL
# Target: Microtubule-associated protein tau (Homo sapiens) (UniProt P10636)
# Assay: qHTS for Inhibitors of Tau Fibril Formation, Fluorescence Polarization; note: nearly all actives have a fitted effect of over 55% in size
# Conditions: K18 P301L tau heparin fibrillization, Alexa594 FP, 6 h
# Source text: NIH Molecular Libraries Probe Production Network [MLPCN]
# NIH Chemical Genomics Center [NCGC]
# Assay Provider: Carlo Ballatore, University of Pennsylvania
# The microtubule-associated protein tau is an abundant protein in the axons of neurons that stabilizes microtubules. With its ability to modulate microtubule dynamics, tau contributes directly or indirectly, to key structural and regulatory cellular functions. Particularly important is the influence tau exerts on axonal transport, which allows signaling molecules, trophic factors and other essential cellular constituents to travel along the axons. Under pathological conditions, tau becomes sequestered into insoluble aggregates called neurofibrillary tangles. This phenomenon is believed to have pathological consequences by promoting axonal transport deficits that ultimately lead to synaptic dysfunction and neuronal loss. To identify inhibitors of tau aggregation, a heparin-induced tau fibril formation assay was used that employed a recombinantly expressed fragment of tau, K18 (Q242-E372), bearing a P301L mutation (Gustke et al. 1994; Hong et al. 1998).
# Gustke, N., B. Trinczek, et al. (1994). "Domains of tau protein and interactions with microtubules." Biochemistry 33(32): 9511-22.
# Hong, M., V. Zhukareva, et al. (1998).
# Li, W. and V. M. Lee (2006). "Characterization of two VQIXXK motifs for tau fibrillization in vitro." Biochemistry 45(51): 15692-701.
# von Bergen, M., S. Barghorn, et al. (2001). "Mutations of tau protein in frontotemporal dementia promote aggregation of paired helical filaments by enhancing local beta-structure." J Biol Chem 276(51): 48165-74.
# NCGC Assay Protocol Summary:
# For screening, 2 uL/well human K18 P301L (15 uM unlabeled and 0.24 uM Alexa 594-labeled tau final concentrations) in reagent buffer (100 mM sodium acetate pH 7) was dispensed into black solid 1536-well plates (Grenier) using a solenoid-based dispenser. Following transfer of 23 nL compound or DMSO vehicle by a pin tool, 2 uL/well heparin (20 uM final concentration) in reagent buffer was added and the plate centrifuged 15 s at 1000 RPM. Plates were incubated 6 hr at 37 C and then 1 uL/well ThT (30 uM final concentration) was added. After a 1 hr ambient incubation, the plates were read by an Envision (Perkin Elmer) to monitor Alexa 594 FP (555 nm excitation and 632 nm emission).
# Keywords: NIH Roadmap, MLPCN, MLI, MLSMR, NCGC, qHTS, tau, tauopathies, Alzheimer's disease, fibril, neurodegeneration, aggregation
# Potency is the fitted concentration of half-maximal effect.
row,SMILES,Potency
1,COc1ccc2nc(NP(=O)(c3ccccc3)c3ccccc3)sc2c1,inconclusive: 8.91 µM
2,Cc1cc(SC(NC(=O)c2ccccc2)C(Cl)(Cl)Cl)nc(C(C)C)n1 (stereo unspecified),inconclusive: 20 µM
3,CCCOP(=S)(Nc1nc(N)cc(=O)[nH]1)OCCC,inconclusive: 44.7 µM
4,CN(C(=O)Cc1ccc(Cl)c(Cl)c1)[C@@H]1CC[C@]2(CCCO2)C[C@H]1N1CCCC1,inconclusive: 0.0562 µM
5,COc1ccc(C2=NCC(CBr)S2)cc1 (stereo unspecified),inconclusive: 11.2 µM
6,O=C(O)c1ccccc1[As](=O)(O)O,inconclusive: 17.8 µM
